Source: PubChem BioAssay (National Center for Advancing Translational Sciences (NCATS))
TDP1 inh: blocks human tyrosyl-DNA phosphodiesterase 1 | Q9NUW8 | AID 485290 | Potency, µM (series often up to 130 µM), hits mostly inhibitors | hit rate 0.28% among 350,000 | recombinant TDP1, AlphaScreen DNA substrate cleavage; also: nearly all actives have a fitted effect of over 40% in size
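Recombinant human Tdp1 (E. coli-expressed, 1 nM final) preincubated with compounds 15 min at room temperature, then 5'-biotin/3'-phosphotyrosine-FITC DNA substrate (15 nM final) added for 5 min. AlphaScreen beads (10 ug/ml final) added 10 min; cleavage lowers signal.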
uPA surface inh: cell surface uPA generation inhibition. cell surface uPA generation assay, qHTS. Potency, µM (series often up to 38.3 µM), most hits filed as inhibitors. hit rate 0.31% among 330,000. AID 540303; active = well fitted inhibition curve with a large enough effect; inconclusive = small, poorly fitted or top-dose-only effect; inactive = no such curve, though single readings can be large or run the other way; tested in mouse RAW 264.7 cells; also: nearly all actives have a fitted effect of over 55% in size
TDP1 cell noCPT: qHTS for Inhibitors of human tyrosyl-DNA phosphodiesterase 1 (TDP1): qHTS in cells in absence of CPT; hit rate 15% among 420,000; AID 686978, 2013; Potency, µM (doses to about 46.2 µM), hits mostly inhibitors; DT40 Tdp1-/- hTDP1 cells, no CPT, ATP luminescence, 48 h; also: nearly all actives have a fitted effect of over 55% in size
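Growth of hTDP1-complemented DT40 Tdp1-knockout cells is measured by ATP luminescence after at least 48 hr compound exposure at 37 °C, with DMSO substituting for the 20 nM CPT used in the parallel screen.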
DT40 TDP1 CPT: DT40-hTDP1 cell growth loss with CPT. hit rate 12% among 420,000. chicken DT40 Tdp1-/-;hTDP1 cells + 20 nM CPT, ATP luminescence, 48 h. AID 686979. Potency, µM (titrated, usually from 46.2 µM), actives largely listed as inhibitors; also: nearly all actives have a fitted effect of over 55% in size
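Cell growth measured by CellTiter-Glo luminescence after a minimum 48 h, 37 C compound exposure with 20 nM CPT in Tdp1-knockout DT40 cells stably expressing hTDP1, seeded 400/well; qHTS titration format.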
miR-21 reporter: miR-21 reporter, rising signal; Potency, µM (top dose mostly 38.3 µM); 340,000 tested, under 10 active; HeLa miR-21 FLuc reporter, luciferase, 48 h; active = well fitted rising curve with a large enough effect; inconclusive = small, poorly fitted or top-dose-only effect; inactive = no such curve, though single readings can be large or run the other way;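 note: miR-21 action dims this reporter so a rising signal means less miR-21 action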
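HeLa miR-21-FLuc reporter line, endogenous miR-21; 2000 cells/well in DMEM/10% FBS; compound titration up to ~40uM final, 48 h, 37 degree Celsius; luciferase detection reagent, 15 min lysis, CCD luminescence.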
Of the large screens only hits and unclear results are named; the others gave an inactive call. An excerpt weighted towards active compounds, which were near 16% of everything screened. Unless noted, calls follow the shape of the dose curve; as a rule, active = well fitted curve in the direction sought with a large enough effect; inconclusive = small, poorly fitted or top-dose-only effect, or another doubt; inactive = no such curve, though single readings can be large; an effect the other way counts as inactive or inconclusive.

COc1ccc(CCNC(=O)Cc2c(C)c3c(cc(C)c4c(C)coc43)oc2=O)cc1OC	TDP1 cell noCPT 21µM, DT40 TDP1 CPT 18µM (no result: uPA surface inh)
O=C(COC(=O)COc1ccc(Cl)cc1)NC1CCCC1	none (no result: miR-21 reporter)
CC1(C(=O)NCC2CCCCC2)CCN1C(=O)Cc1ccc(-c2ccccc2)cc1 (stereo unspecified)	TDP1 cell noCPT 23µM, DT40 TDP1 CPT inconclusive (no result: TDP1 inh, uPA surface inh, miR-21 reporter)
CC1(C(=O)NS(=O)(=O)Cc2ccccc2)CCN1C(=O)Cc1ccc(-c2ccccc2)cc1 (stereo unspecified)	none (no result: TDP1 inh, uPA surface inh, miR-21 reporter)
CC1(C(=O)NC2CCCC2)CCN1C(=O)Cc1ccc(-c2ccccc2)cc1 (stereo unspecified)	TDP1 cell noCPT 23µM, DT40 TDP1 CPT 16µM (no result: TDP1 inh, uPA surface inh, miR-21 reporter)
O=C1CC(Sc2ncccn2)C(=O)N1c1ccccc1C(F)(F)F (stereo unspecified)	TDP1 cell noCPT inconclusive, DT40 TDP1 CPT inconclusive
COc1ccc(N2C(=O)CC(Sc3nc(C)c4c(n3)CCCC4)C2=O)cc1 (stereo unspecified)	TDP1 cell noCPT 23µM, DT40 TDP1 CPT 18µM
Cc1cccc(N2C(=O)CC(Sc3nc(C)c4c(n3)CCCC4)C2=O)c1 (stereo unspecified)	DT40 TDP1 CPT inconclusive (no result: uPA surface inh)
Cc1nc(SC2CC(=O)N(c3cc(Cl)cc(Cl)c3)C2=O)nc2c1CCCC2 (stereo unspecified)	TDP1 cell noCPT inconclusive, DT40 TDP1 CPT 21µM
Cc1ccc(Cl)cc1N1C(=O)CC(Sc2ncccn2)C1=O (stereo unspecified)	TDP1 cell noCPT 21µM, DT40 TDP1 CPT inconclusive
N#Cc1ccccc1-c1ccc2ncnc(N3CCNCC3)c2c1	none (no result: uPA surface inh, miR-21 reporter)
O=C(NCCCN1CCOCC1)C(=O)N/N=C/c1c2ccccc2cc2ccccc12	TDP1 cell noCPT 21µM, DT40 TDP1 CPT inconclusive
O=C(NCCCN1CCOCC1)C(=O)N/N=C/c1c(Cl)cccc1Cl	none
Cc1ccc(S(=O)(=O)N2CCOCC2)cc1C(=O)OCC(=O)Nc1ccc(Cl)cn1	none (no result: TDP1 inh, uPA surface inh, miR-21 reporter)
CCCC(=O)c1cc(-c2nc3ccccc3n2C)n(C)c1	DT40 TDP1 CPT inconclusive
CC(C)(C)c1nnc(N/N=C/c2ccccc2O)n(N)c1=O	TDP1 cell noCPT 1µM, DT40 TDP1 CPT 0.65µM
CC(C)(C)c1nnc(N/N=C/c2ccccc2)n(N)c1=O	TDP1 cell noCPT inconclusive
COc1cccc(NCc2nnc(SCC(=O)NC3CCS(=O)(=O)C3)n2C2CCCCC2)c1 (stereo unspecified)	none (no result: miR-21 reporter)
Cc1ccc(NC(=O)N2CCOCC2)c(C)c1	none
COc1cc(CNCCc2c[nH]c3ccccc23)ccc1OCc1ccc(F)cc1	TDP1 cell noCPT 18µM, DT40 TDP1 CPT 15µM
COc1cccc(CNCCc2c[nH]c3ccccc23)c1OCc1ccc(F)cc1	TDP1 cell noCPT 15µM, DT40 TDP1 CPT 18µM
COc1cc(CNCCc2c[nH]c3ccccc23)cc(Cl)c1OCC(N)=O	TDP1 cell noCPT inconclusive, DT40 TDP1 CPT inconclusive
Cc1cccc(NC(=O)N2CCCc3ccccc32)c1C	none
Cc1ccc(C)n1-c1nnc(N2CCC(C(=O)NCCCN3CCN(C)CC3)CC2)s1	TDP1 cell noCPT inconclusive, DT40 TDP1 CPT 26µM (no result: TDP1 inh)
O=C(NCCCN1CCN(Cc2ccccc2)CC1)C1CCN(c2nnc(-n3cccc3)s2)CC1	TDP1 cell noCPT 26µM, DT40 TDP1 CPT inconclusive
Cc1ccc(-c2nc(N/N=C/c3cccc([N+](=O)[O-])c3)c3ccccc3n2)cc1	TDP1 cell noCPT 15µM, DT40 TDP1 CPT 13µM (no result: uPA surface inh)
O=[N+]([O-])c1cccc(/C=N/N=C\c2ccccc2)c1	none (no result: TDP1 inh)
Cc1ccc(-c2nc(N/N=C/c3cccnc3)c3ccccc3n2)cc1	uPA surface inh inconclusive, TDP1 cell noCPT 18µM, DT40 TDP1 CPT 23µM
COc1ccc([N+](=O)[O-])cc1N	none (no result: uPA surface inh, TDP1 cell noCPT, DT40 TDP1 CPT, miR-21 reporter)
COC(CNC(=O)c1ccc(CS(=O)(=O)c2ccccc2)o1)OC	none (no result: TDP1 inh)
COc1ccc(C2=CSC3=NNC4(CCCCC4)NN23)cc1	none (no result: uPA surface inh)
Cc1ccc(C2=CSC3=NNC4(CCCCC4)NN23)cc1	TDP1 cell noCPT 23µM, DT40 TDP1 CPT inconclusive
O=C(NCc1ccccc1Cl)C1CCC(=O)N1Cc1ccc(F)cc1 (stereo unspecified)	none (no result: TDP1 inh)
O=C(Oc1ccccc1Cl)c1ccccc1	none (no result: TDP1 inh, miR-21 reporter)
O=C(Oc1cccccc1=O)c1ccccc1	uPA surface inh inconclusive, TDP1 cell noCPT 21µM, DT40 TDP1 CPT 18µM
